The entries are a selection whose mix differs from that of the whole data set. Some salts and complexes are drawn in separate pieces, as the source files them; their charges need not balance. The source made the active and inactive calls. No stated cut-off is given here; in the data, active means inhibition above about 50%; inactive means the rest.

Sequences of proteins named here, by UniProt entry; tags and fusion partners are left off.
UniProt O75030, whole entry: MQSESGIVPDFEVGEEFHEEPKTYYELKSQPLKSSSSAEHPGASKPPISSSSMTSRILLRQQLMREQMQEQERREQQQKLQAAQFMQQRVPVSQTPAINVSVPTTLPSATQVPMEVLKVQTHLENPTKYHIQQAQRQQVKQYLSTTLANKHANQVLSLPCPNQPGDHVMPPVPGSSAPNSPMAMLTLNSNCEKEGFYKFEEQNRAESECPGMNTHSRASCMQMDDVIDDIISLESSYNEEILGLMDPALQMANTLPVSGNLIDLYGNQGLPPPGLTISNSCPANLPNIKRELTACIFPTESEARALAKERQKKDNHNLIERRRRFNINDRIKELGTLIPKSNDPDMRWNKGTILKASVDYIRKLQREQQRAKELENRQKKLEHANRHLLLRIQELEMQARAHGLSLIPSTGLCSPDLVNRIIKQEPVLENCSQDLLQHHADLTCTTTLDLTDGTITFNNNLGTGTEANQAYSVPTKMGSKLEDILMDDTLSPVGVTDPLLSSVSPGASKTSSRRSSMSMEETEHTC

This test addresses Microphthalmia-associated transcription factor (Homo sapiens) (UniProt O75030). In words: MITF inhibitors, primary screen, biochemical, AlphaScreen, human (AID 1259374).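 Further: 0% = vehicle wells with protein.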 The following applies: AlphaScreen MITF homodimerization, bead proximity signal; at 2.6 µM; active compounds read high.
Usually inhibition stands for the change of the read-out against control, counted positive when it falls. Take `Cc1ccc(NP(C)(=O)Oc2ccccc2)cc1C` (centres undefined): the inhibition was inactive: 4.08%.
Regarding `CCN(CC)P(=O)(c1c([N+](=O)[O-])cc([N+](=O)[O-])cc1[N+](=O)[O-])N(CC)CC`, the inhibition is inactive: -0.21%.
The value for `CP(=O)(O)OC(c1cccc(Cl)c1)C(F)(F)F` (centres undefined) was inactive: -5.35%; that for `CP(=O)(NC(=O)Nc1ccccc1)Oc1ccccc1` (centres undefined) was inactive: 5.09%.
On to `C=C(C)CC1NC2CC(C)(C)C1c1ccccc12.O=[N+]([O-])c1cc([N+](=O)[O-])c(O)c([N+](=O)[O-])c1` (centres undefined), for which the inhibition is inactive: -19.4%.
On to `COc1ccc(NP(C)(=O)Oc2ccc(C(C)C)cc2)cc1` (centres undefined), for which the inhibition is inactive: -9.55%.
As for `CCOP(C)(=S)SCC(=O)NC(Cc1ccccc1)C(=O)O` (centres undefined), the inhibition was inactive: 5.77%.
The value for `COc1cc2nc(C)sc2cc1NC(C)=O` was inactive: 23.4%.
The value for `CP(=O)(Nc1ccccn1)Oc1ccc(Cl)cc1` (centres undefined) was inactive: -3.56%.
Regarding `CCOP(C)(=S)SCC(=O)NC(C)C(=O)O` (centres undefined), the inhibition was inactive: 1.39%.
With `Cc1ccc(Cl)cc1OP(C)(=O)Nc1cccc2nsnc12` (centres undefined) the figure was inactive: -0.26%; with `COc1ccccc1OP(C)(=O)Nc1cccc(Cl)c1C` (centres undefined), inactive: 8.33%.
For `CP(=O)(O)OC(c1ccc(Cl)cc1)C(F)(F)F` (centres undefined), the inhibition was inactive: -3.07%.
On to `Cc1cccc(NP(C)(=O)Oc2ccccc2)c1` (centres undefined), for which the inhibition is inactive: 13.1%.
With `CCOC(=O)c1ccc(NP(C)(=O)Oc2ccc(OC)cc2)cc1` (centres undefined) the figure was inactive: -0.45%; with `O=[N+]([O-])c1cc([N+](=O)[O-])c(CCO)c([N+](=O)[O-])c1`, inactive: 3.16%; with `COc1ccc(NP(C)(=O)OC(c2ccccc2)C(F)(F)F)cc1` (centres undefined), inactive: -6.93%.
Turning to `CP(=O)(O)OC(c1ccccc1)C(F)(F)F` (centres undefined), the inhibition was inactive: 4.63%.
As to `CN(C)CCOC(=O)C(O)(c1ccccc1)c1ccccc1`, the inhibition was inactive: -5.15%.
For the molecule `COc1ccccc1OP(C)(=O)Nc1ccccc1` (centres undefined), the inhibition is inactive: 11.4%.
The value for `CC(Nc1c([N+](=O)[O-])cc([N+](=O)[O-])cc1[N+](=O)[O-])c1ccc([N+](=O)[O-])cc1` (centres undefined) was inactive: 20.7%; that for `CP(=O)(Nc1ccccc1Br)Oc1ccccc1` (centres undefined) was inactive: 4.33%; that for `CP(=O)(Nc1ccc(Cl)cc1)Oc1ccccc1` (centres undefined) was inactive: -17.2%.
`O=C(O)C(O)(c1ccccc1)c1ccccc1`: the inhibition is inactive: -7.12%.
With `O=C(O)Cc1c([N+](=O)[O-])cc([N+](=O)[O-])cc1[N+](=O)[O-]` the figure was inactive: 17.7%; with `CCc1ccc(OP(C)(=O)Nc2ccccc2I)cc1` (centres undefined), inactive: 12.5%; with `CP1(=O)Oc2ccccc2Cc2ccccc2O1`, inactive: 10.7%.
For the molecule `CC(CCN([N+](=O)[O-])S(=O)(=O)c1ccc([N+](=O)[O-])cc1)([N+](=O)[O-])[N+](=O)[O-]`, the inhibition is inactive: -10.2%.
As to `CC(C)(C)c1ccc(OP(C)(N)=O)cc1` (centres undefined), the inhibition was inactive: 8.51%.
As to `O=C(O)C1(O)c2ccccc2-c2ccccc21`, the inhibition is inactive: 3.73%.
The value for `COc1ccccc1OP(C)(=O)Nc1cc(Cl)ccc1C` (centres undefined) was inactive: 1.04%.
As to `Cc1cc(C)cc(OP(C)(=O)NCc2ccccc2)c1` (centres undefined), the inhibition is inactive: 13.2%.
The value for `CP(=O)(O)OC(c1cccc(C(F)(F)F)c1)C(F)(F)F` (centres undefined) was inactive: 5.82%; that for `CCOC(=O)c1ccc(NP(C)(=O)Oc2ccccc2)cc1` (centres undefined) was inactive: 6.14%.
In the case of `Cc1ccc(NP(C)(=O)Oc2ccccc2)c(C)c1` (centres undefined), the inhibition was inactive: 2.25%.
As to `COc1ccccc1OP(C)(=O)Nc1ccc(C)cc1` (centres undefined), the inhibition is inactive: -1.33%.
With `CCN(CC)c1nc(C)cc(C)n1.O=[N+]([O-])c1cc([N+](=O)[O-])c(O)c([N+](=O)[O-])c1` the figure was inactive: 14.9%; with `Cc1cc(C)cc(OP(C)(=O)Nc2ccc(F)cc2)c1` (centres undefined), inactive: 7.25%.
The value for `Cc1ccc2c(c1)c1nc(C)sc1n2C.O=[N+]([O-])c1cc([N+](=O)[O-])c(O)c([N+](=O)[O-])c1` was inactive: -7.52%; that for `Cc1ccc(NP(C)(=O)Oc2ccccc2)cc1` (centres undefined) was inactive: -16%; that for `CCN(CC)CCCOC(=O)C(O)(c1ccccc1)c1ccccc1` was inactive: -4.08%.
The value for `CCCCOC(=O)Nc1c([N+](=O)[O-])cc([N+](=O)[O-])cc1[N+](=O)[O-]` was inactive: -2.15%; that for `COc1ccccc1OP(C)(=O)Nc1ccc(Cl)cc1Cl` (centres undefined) was inactive: -4.13%.
With `CC(C)Oc1ccc(NP(C)(=O)Oc2ccc(Cl)cc2)cc1` (centres undefined), the inhibition was inactive: 6.16%.
The value for `O=[N+]([O-])c1c(NCCO)c([N+](=O)[O-])c(NCCO)c([N+](=O)[O-])c1NCCO` was inactive: -4.75%.
For the molecule `CCOP(C)(=S)SCN(CC(=O)O)C(=O)OC` (centres undefined), the inhibition was active: 61.9%.
On to `O=c1[nH]c2cc([N+](=O)[O-])c([N+](=O)[O-])c([N+](=O)[O-])c2[nH]1`, for which the inhibition is inactive: 26.3%.
On to `CCOC(=O)c1ccc(NP(C)(=O)Oc2cc(C)cc(C)c2)cc1` (centres undefined), for which the inhibition was inactive: 10.5%.
The value for `CC1=[N+](C)C(C)(C)Cc2ccccc21.O=[N+]([O-])c1cc([N+](=O)[O-])c(O)c([N+](=O)[O-])c1` was inactive: -4.88%; that for `COc1ccccc1OP(C)(=O)Nc1ccc(Cl)cc1` (centres undefined) was inactive: 0.18%; that for `COc1ccccc1OP(C)(=O)Nc1cccc(Br)c1` (centres undefined) was inactive: 4.03%.
With `COc1ccc(OP(C)(=O)Nc2cccc(Cl)c2C)cc1` (centres undefined) the figure was inactive: 6.41%.
The value for `CC(=O)NC1(NC(C)=O)CC(C)N(C)CC1C.O=[N+]([O-])c1cc([N+](=O)[O-])c(O)c([N+](=O)[O-])c1` (centres undefined) was inactive: -4.72%.
For `O=[N+]([O-])c1cnc(Nc2c([N+](=O)[O-])cc([N+](=O)[O-])cc2[N+](=O)[O-])c([N+](=O)[O-])c1`, the inhibition is inactive: 0.94%.
With `CP(=O)(Nc1cccc(Br)c1)Oc1ccccc1` (centres undefined) the figure was inactive: 11.6%; with `C=CCC1(CC=C)CCCCCCCCCCCN1.O=[N+]([O-])c1cc([N+](=O)[O-])c(O)c([N+](=O)[O-])c1`, inactive: 13.1%.
The value for `O=[N+]([O-])c1cc2[nH]c3cc([N+](=O)[O-])c([N+](=O)[O-])cc3c2cc1[N+](=O)[O-]` was active: 88.2%; that for `Cc1ccc(C)c(NP(C)(=O)Oc2ccccc2)c1` (centres undefined) was inactive: -4.23%; that for `Nc1c([N+](=O)[O-])cc([N+](=O)[O-])c(Nc2ccc(C(=O)O)cc2)c1[N+](=O)[O-]` was inactive: 8.45%.
With `O=[N+]([O-])C12CC3(O)CC([N+](=O)[O-])(C1)CC([N+](=O)[O-])(C3)C2` the figure was inactive: -9.16%.
On to `O=[N+]([O-])Nc1nc(CCc2n[nH]c(N[N+](=O)[O-])n2)n[nH]1`, for which the inhibition is inactive: -7.13%.
On to `Cc1ccc(Cl)c(OP(C)(=O)Nc2ccccn2)c1` (centres undefined), for which the inhibition is inactive: 6.11%.
The value for `CCOC(=O)C(CC)C1=NC(C)(C)Cc2ccccc21.O=[N+]([O-])c1cc([N+](=O)[O-])c(O)c([N+](=O)[O-])c1` (centres undefined) was inactive: 3.35%; that for `CP(=O)(Nc1ccc(Br)cc1)Oc1ccc(Cl)cc1` (centres undefined) was inactive: -9.6%.
For the molecule `CP(=O)(Nc1cccc(Br)c1)Oc1ccc(Cl)cc1` (centres undefined), the inhibition was inactive: 0.97%.
With `CCCOc1ccc(NP(C)(=O)Oc2ccccc2OC)cc1` (centres undefined) the figure was inactive: 1.61%.
With `Cc1cc(N(C)C)cc[n+]1C(=O)N(C)C.c1ccc([B-](c2ccccc2)(c2ccccc2)c2ccccc2)cc1` the figure was inactive: 2.68%; with `CCN(CC)C(C)COC(=O)C(O)(c1ccccc1)c1ccccc1` (centres undefined), inactive: -8.29%.
The value for `COc1ccccc1OP(C)(=O)Nc1c(C)cccc1C` (centres undefined) was inactive: 7.32%; that for `CCN(CC)C(=O)c1c([N+](=O)[O-])cc([N+](=O)[O-])cc1[N+](=O)[O-]` was inactive: 6.71%.
`Nc1nonc1-c1no[n+]([O-])c1-c1nonc1N`: the inhibition is inactive: 2.63%.
The value for `CP(=O)(O)OC(c1ccccc1)C(Cl)(Cl)C(F)(F)F` (centres undefined) was inactive: -7.22%; that for `CN(C)/N=C/c1ccc(-c2c([N+](=O)[O-])cc([N+](=O)[O-])cc2[N+](=O)[O-])o1` was inactive: 18.9%; that for `Cc1cc(-c2nc3ccccc3[nH]2)c2ccccc2n1.O=[N+]([O-])c1cc([N+](=O)[O-])c(O)c([N+](=O)[O-])c1` was inactive: 6.79%.
Regarding `COc1ccc(NP(C)(=O)Oc2ccc(Cl)cc2)cc1` (centres undefined), the inhibition was inactive: -4.54%.
The value for `CP(=O)(O)OC(c1ccccc1)C(F)(F)C(F)(F)F` (centres undefined) was inactive: 2.81%.
`Cc1ccc(Cl)c(OP(C)(=O)Nc2ccc(F)cc2)c1` (centres undefined): the inhibition is inactive: -0.5%.
With `Cc1c([N+](=O)[O-])c(C)c([N+](=O)[O-])c(C)c1[N+](=O)[O-]` the figure was inactive: 3.38%.
The value for `[N-]=[N+]=NCN1c2nonc2N(CN=[N+]=[N-])c2nonc21` was inactive: 7.57%.
In the case of `COc1ccc(OP(C)(=O)Nc2ccccc2)cc1` (centres undefined), the inhibition is inactive: 2.43%.
On to `Cc1ccccc1NP(C)(=O)Nc1ccccc1C`, for which the inhibition was inactive: 4.35%.
With `CP(=O)(Nc1ccc2c(c1)OCCO2)Oc1ccccc1` (centres undefined) the figure was inactive: -1.62%.
For the molecule `CCN(CC)c1c([N+](=O)[O-])cc([N+](=O)[O-])cc1[N+](=O)[O-]`, the inhibition was inactive: 23.9%.
The value for `COC(=O)Nc1nc2ccccc2[nH]1.O=C1CCCN1c1ccc(S(=O)(=O)O)cc1[N+](=O)[O-]` was inactive: 5.3%; that for `COc1ccc(NP(C)(=O)Oc2ccccc2OC)cc1` (centres undefined) was inactive: -0.34%.
With `CC(=O)OC1(C#N)CN2CCC1CC2` (centres undefined) the figure was inactive: -1.26%; with `O=[N+]([O-])c1cc([N+](=O)[O-])c(Nc2c([N+](=O)[O-])cc([N+](=O)[O-])cc2[N+](=O)[O-])c([N+](=O)[O-])c1`, inactive: 18.2%.
For `CN(C)CCOC(=O)C(O)(c1ccccc1)C1CCCCC1` (centres undefined), the inhibition was active: 67.1%.
`O=[N+]([O-])c1ccc(Nc2c([N+](=O)[O-])cc([N+](=O)[O-])cc2[N+](=O)[O-])cc1`: the inhibition is inactive: 9.89%.

For the origin of these results see PubChem BioAssay AID1259374 (The Scripps Research Institute Molecular Screening Center, 2018).
